In ChEMBL document CHEMBL4421732, “Use of small molecule inhibitors targeting EYA tyrosine phosphatase” (2017):

Organism: Homo sapiens
Assay: Selectivity index, ratio of IC50 for inhibition of PTP1B (unknown origin) using para-nitrophenol phosphate substrate incubated for 30 mins to IC50 for inhibition of poly-histidine and GST-tagged full length human Eya3 isoform 2 (127 to 573 residues) using para-nitrophenol phosphate substrate incubated for 30 mins

CCc1oc2ccccc2c1C(=O)c1cc(Br)c(O)c(Br)c1
Ratio IC50: 4.7 to 6.5
